Assay results as given in ChEMBL document CHEMBL1135311, “N-Cycloalkanoyl-L-phenylalanine derivatives as VCAM/VLA-4 antagonists” (Bioorg Med Chem Lett, 2002).

Sequences of proteins named here, by UniProt entry; tags and fusion partners are left off.
UniProt P05556, whole entry: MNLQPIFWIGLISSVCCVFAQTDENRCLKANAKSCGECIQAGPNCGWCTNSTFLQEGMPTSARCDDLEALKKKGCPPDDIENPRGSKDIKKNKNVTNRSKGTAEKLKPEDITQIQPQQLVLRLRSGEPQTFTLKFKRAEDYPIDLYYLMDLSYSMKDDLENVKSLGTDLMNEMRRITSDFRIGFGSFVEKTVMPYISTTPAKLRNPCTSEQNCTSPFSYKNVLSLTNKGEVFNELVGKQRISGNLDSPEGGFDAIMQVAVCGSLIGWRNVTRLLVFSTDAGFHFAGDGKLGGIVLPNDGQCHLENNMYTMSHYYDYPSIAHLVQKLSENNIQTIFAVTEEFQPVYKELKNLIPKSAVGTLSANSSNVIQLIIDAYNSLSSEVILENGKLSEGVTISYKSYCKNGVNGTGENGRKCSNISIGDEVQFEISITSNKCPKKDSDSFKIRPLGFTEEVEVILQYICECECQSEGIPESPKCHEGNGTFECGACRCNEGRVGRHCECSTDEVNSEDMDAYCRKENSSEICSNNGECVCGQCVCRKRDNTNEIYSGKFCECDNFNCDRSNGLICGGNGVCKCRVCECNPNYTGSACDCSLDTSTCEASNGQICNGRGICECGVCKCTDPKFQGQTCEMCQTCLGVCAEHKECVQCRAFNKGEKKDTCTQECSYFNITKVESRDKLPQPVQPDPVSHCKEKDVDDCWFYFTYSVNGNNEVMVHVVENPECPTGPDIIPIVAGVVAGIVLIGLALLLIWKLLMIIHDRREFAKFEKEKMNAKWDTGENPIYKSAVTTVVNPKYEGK
UniProt P13612, whole entry: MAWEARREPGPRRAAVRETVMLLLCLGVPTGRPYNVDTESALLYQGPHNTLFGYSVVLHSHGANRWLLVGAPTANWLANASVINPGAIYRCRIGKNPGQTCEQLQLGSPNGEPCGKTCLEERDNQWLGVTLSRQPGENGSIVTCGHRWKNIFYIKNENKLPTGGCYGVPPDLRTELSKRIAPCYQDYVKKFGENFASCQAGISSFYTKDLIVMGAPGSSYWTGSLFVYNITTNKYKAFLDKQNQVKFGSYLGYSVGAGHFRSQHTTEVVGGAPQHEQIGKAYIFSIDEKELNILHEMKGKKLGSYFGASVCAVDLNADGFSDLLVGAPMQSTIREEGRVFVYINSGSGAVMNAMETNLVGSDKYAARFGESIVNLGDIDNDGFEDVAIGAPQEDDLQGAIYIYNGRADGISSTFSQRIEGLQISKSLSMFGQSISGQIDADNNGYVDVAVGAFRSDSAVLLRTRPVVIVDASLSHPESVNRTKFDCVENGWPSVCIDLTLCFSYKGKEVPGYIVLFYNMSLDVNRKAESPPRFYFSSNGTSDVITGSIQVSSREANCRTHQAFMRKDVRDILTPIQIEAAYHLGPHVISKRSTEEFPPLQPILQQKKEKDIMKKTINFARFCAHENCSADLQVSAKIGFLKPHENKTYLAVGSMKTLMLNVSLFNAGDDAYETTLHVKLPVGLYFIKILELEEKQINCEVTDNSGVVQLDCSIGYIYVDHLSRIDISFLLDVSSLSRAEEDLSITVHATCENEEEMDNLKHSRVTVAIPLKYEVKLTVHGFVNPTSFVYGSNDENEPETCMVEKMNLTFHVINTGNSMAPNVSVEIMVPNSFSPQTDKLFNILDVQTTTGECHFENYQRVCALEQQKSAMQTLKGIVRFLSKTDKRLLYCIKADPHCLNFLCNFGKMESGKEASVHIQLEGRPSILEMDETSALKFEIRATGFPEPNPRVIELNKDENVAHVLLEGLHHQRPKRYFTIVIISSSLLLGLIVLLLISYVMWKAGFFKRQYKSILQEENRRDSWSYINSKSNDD

How the values were obtained:
[1] = biological target: T1, Integrin alpha-4/beta-1 (Homo sapiens, UniProt P05556+P13612); assay: Inhibitory binding concentration determined against VCAM/VLA-4 in ELISA; format: protein-complex assay
[2] = biological target: T1, Integrin alpha-4/beta-1; assay: Inhibitory binding concentration determined against VCAM/VLA-4 in Ramos; format: protein-complex assay

| Structure (SMILES) | IC50 [1] [nM] | IC50 [2] [nM] |
| --- | --- | --- |
| CNC(=O)N(C)CCC1(C(=O)N[C@@H](Cc2ccc(NC(=O)c3c(Cl)cccc3Cl)cc2)C(=O)O)CCCC1 | 1.15 | – |
| CC(=O)NCCC1(C(=O)N[C@@H](Cc2ccc(NC(=O)c3c(Cl)cccc3Cl)cc2)C(=O)O)CCCC1 | – | 8 |
| COc1ccc(CC2(C(=O)N[C@@H](Cc3ccc(NC(=O)c4c(Cl)cccc4Cl)cc3)C(=O)O)CCCCC2)cc1 | – | 250 |
